System: intracellular BTK (pY223) in Ramos cells
Settings: test compound 0.3 μM, 1 hour, IgM 10 μg/mL 10 minutes

**Q.** With `CCn1cc(Nc2nc(N)nc(-c3cccc(N4CCc5cc(C6CC6)cc(F)c5C4=O)c3CO)n2)cn1` as the compound, how does the “BTK phosphorylation inhibitory activity” value read?
**A.** Its value is “*** (70% or more)”.
